Source: publication PMC3694096, “Development of Novel In Vivo Chemical Probes to Address CNS Protein Kinase Involvement in Synaptic Dysfunction” (PLoS ONE, 2013)

Test: Acid dissociation constant (pKa)
Assay type: physicochemical
Conditions: 22±2°C, methanol co-solvent, 0.15 M KCl; read-out: pKa (potentiometric method), first value

Q: With `CN(C)c1cc(-c2ccncc2)c(-c2ccc3ccccc3c2)nn1` [MW108, N, N-dimethyl-6-(naphthalen-2-yl)-5-(pyridin-4-yl)pyridazin-3-amine] as the molecule, how does the pKa read?
A: 4.48 ± 0.09
